Target: D(2) dopamine receptor (Rattus norvegicus, UniProt P61169)
Test: Compound was evaluated for the inhibition of [3H]spiperone binding to dopamine receptor D2 of rat striatal membranes
Assay type: cell membranes, Membrane
Summary of the method: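 Rat striatal membranes were washed twice at 20,000g and suspended at 3.5 mg wet weight/mL in 50 mM Tris-HCl pH 7.4 with 120 mM NaCl, 5 mM KCl, 2 mM CaCl2, 1 mM MgCl2. Displacement of 0.1 nM [3H]spiperone (final) by 6-7 concentrations of test drug. Nonspecific binding defined with 1 μM (+)-butaclamol. Triplicates, repeated on three days. IC50 from log-probit plot.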

Amino acid sequences for entries named in this document (tags omitted).
UniProt P61169, whole entry: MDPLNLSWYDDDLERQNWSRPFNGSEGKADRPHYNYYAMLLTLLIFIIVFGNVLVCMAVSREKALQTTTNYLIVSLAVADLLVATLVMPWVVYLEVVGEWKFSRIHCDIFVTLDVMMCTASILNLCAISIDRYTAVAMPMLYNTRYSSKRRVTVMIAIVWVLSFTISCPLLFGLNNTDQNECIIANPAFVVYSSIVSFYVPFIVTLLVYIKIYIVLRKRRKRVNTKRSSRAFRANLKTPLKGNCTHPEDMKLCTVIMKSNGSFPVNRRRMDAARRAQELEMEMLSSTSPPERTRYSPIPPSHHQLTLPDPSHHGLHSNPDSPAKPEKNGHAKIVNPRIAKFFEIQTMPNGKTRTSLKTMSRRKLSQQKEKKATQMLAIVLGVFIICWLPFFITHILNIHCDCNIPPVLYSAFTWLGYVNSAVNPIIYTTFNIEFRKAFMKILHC

CCN(CCc1ccccc1)CCc1ccc(F)c(O)c1
IC50: 230 nM

Reference: ChEMBL document CHEMBL1124899 (J Med Chem, 1990)
